In EP3338775B1, “USE OF BUTYLIDENEPHTHALIDE” (Everfront Biotech Inc., priority 2015, dated 2017):
Several values for one entry are separate records, joined by “and”; a condition that tells them apart may be missing. Identical values can stand only once.

Test system: brain CSCs ^CD133+
Test: MTT cell viability assay on brain CSCs CD133+
Type: cell-based
Settings: 24 h, read-out: IC50 to brain CSCs ^CD133+
From the text: Thereafter, a cell viability assay, MTT assay, was utilized to analyze the viabilities of brain CSCs ^CD133+ and malignant glioma DBTRG cells. […]

Structure (SMILES): O=NN(CCCl)C(=O)NCCCl [BCNU, bis-chloroethylnitrosourea]
- IC50: 378 µM and 80.8 µg/mL
